Earlier results as cited in patent US8071368B2, “Methods for promoting growth and survival of insulin-secreting cells” (Alizé Pharma SAS, priority 2001, dated 2011).

Chains of the proteins cited; added tags and fusions are not shown.
UniProt Q92847, whole entry: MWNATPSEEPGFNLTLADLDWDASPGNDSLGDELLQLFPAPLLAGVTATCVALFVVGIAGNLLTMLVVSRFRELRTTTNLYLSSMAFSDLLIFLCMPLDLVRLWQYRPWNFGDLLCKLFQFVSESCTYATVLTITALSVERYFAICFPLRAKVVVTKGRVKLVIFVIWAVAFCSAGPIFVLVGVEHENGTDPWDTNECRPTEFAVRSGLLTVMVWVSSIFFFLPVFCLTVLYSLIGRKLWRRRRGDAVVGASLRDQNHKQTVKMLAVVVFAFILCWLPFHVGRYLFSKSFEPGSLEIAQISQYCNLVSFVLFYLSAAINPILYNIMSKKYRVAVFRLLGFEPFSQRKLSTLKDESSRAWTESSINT

Assays:
GHS-R1a [1] = target: T1, GHS-R1a (Homo sapiens, UniProt Q92847); conditions: cited from earlier work
GHS-R1a [2] = target: T1, GHS-R1a; conditions: literature statement; cited from earlier work

Substance | IC50 (GHS-R1a [1]; Bednarek et al. 2000) [µM] | affinity to GHS-R1a (GHS-R1a [1]; literature statement) | activation of GHS-R1a (GHS-R1a [2])
NH2Gly-Ser-Ser-Phe-Leu-Ser-Pro-Glu-His-Gln-Arg-Val-Gln-Gln-Arg-Lys-Glu-Ser-Lys-Lys-Pro-Pro-Ala-Lys-Leu-Gln-Pro-Arg (GSSFLSPEHQRVQQRKESKKPPAKLQPR; synthetic polypeptide unacylated ghrelin) | > 10 | no affinity | 
des Gln-14 Ghrelin: 27 amino acid peptide possessing serine 3 modification by n-octanoic acid (GSSFLSPEHQRVQRKESKKPPAKLQPR; Ser3 n-octanoyl; synthetic polypeptide unacylated ghrelin) |  |  | elicits Ca^2+ fluxes in cloned cells
